The values that follow are results of earlier work, collected in patent publication US20210046085A1, “TREATMENT OF ADVANCED ESTROGEN RECEPTOR POSITIVE BREAST CANCER” (Pantarhei Oncology B.V., priority 2018, published 2021).

The subject of this series is breast cancer. To be noted: 5.0 mg estriol per day for as long as eleven months; cited from earlier work.

As to `C[C@]12CC[C@@H]3c4ccc(O)cc4CC[C@H]3[C@@H]1C[C@@H](O)[C@@H]2O` [estriol, estra-1,3,5(10)-triene-3,16α,17β-triol], the Tolerability entry is “well tolerated”.
